This note sets out measurements from publication PMC4642525, “Conjugates of γ-Carbolines and Phenothiazine as new selective inhibitors of butyrylcholinesterase and blockers of NMDA receptors for Alzheimer Disease” (Scientific Reports, 2015).

Sequences of proteins named here, by UniProt entry; tags and fusion partners are left off. A line that says so, or that is headed by a name, gives the form on record, which may keep a tag or linker.
UniProt P22303, other isoform, or with tags, fused parts or gaps: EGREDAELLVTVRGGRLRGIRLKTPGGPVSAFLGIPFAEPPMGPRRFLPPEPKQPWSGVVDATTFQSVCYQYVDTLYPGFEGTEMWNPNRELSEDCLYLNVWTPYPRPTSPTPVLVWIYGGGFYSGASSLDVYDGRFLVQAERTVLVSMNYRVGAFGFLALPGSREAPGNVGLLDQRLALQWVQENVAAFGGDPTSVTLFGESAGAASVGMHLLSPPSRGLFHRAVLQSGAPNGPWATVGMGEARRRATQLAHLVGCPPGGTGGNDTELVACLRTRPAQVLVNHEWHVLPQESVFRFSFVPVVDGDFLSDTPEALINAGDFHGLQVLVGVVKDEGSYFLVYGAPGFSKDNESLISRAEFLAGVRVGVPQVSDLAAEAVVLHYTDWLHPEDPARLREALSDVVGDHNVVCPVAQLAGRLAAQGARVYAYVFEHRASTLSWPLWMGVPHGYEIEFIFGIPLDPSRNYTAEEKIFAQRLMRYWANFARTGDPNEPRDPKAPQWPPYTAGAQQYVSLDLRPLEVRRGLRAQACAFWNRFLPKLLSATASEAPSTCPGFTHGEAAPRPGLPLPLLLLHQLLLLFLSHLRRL

The test concerns the target T1, Acetylcholinesterase (AChE, EC 3.1.1.7, from human erythrocyte) (Homo sapiens, UniProt P22303).
T1 construct: Acetylcholinesterase (AChE, EC 3.1.1.7, from human erythrocyte); purchased Sigma-Aldrich (Germany); host or cells: human erythrocytes
Briefly: biochemical. The method, then:
Acetylcholinesterase (AChE, EC 3.1.1.7, from human erythrocyte), butyrylcholinesterase (BChE, EC 3.1.1.8, from equine serum), carboxylesterase (CaE, EC 3.1.1.1, from porcine liver), acetylthiocholine iodide (ATCh), butylthiocholine iodide (BTCh), 5,5´-dithiobis-(2-nitrobenzoic acid) (DTNB), 4-nitrophenyl acetate (4-NPA), were purchased from Sigma-Aldrich (Germany).
AChE and BChE activities were measured by the method of Ellman and coworkers as described earlier. The assay solution consisted of 0.1 M K/Na phosphate buffer pH 7.5, 25 °C with the addition of 0.33 mM DTNB, 0.02 unit/mL of AChE or BChE and 1 mM of substrate (ATCh or BTCh, respectively). Assays were carried out with a blank containing all components except ATCh and BTCh in order to account for non-enzymatic reaction.
The tested compounds were dissolved in DMSO; the incubation mixture contained 2% of the solvent. […] The test compounds were added to the assay solution and preincubated at 25 °C with the enzymes for 10 min followed by the addition of substrate. A parallel control was made for the assay solution with no inhibitor. […] The results were expressed as the mean ± SEM. The reaction rates in the presence and absence of inhibitor were compared, and the percent of residual enzyme activity due to the presence of test compounds was calculated.

In general, IC50 refers to the concentration needed to halve the response being measured. The low end stands for higher potency, the high end for lower potency.

Compound `CN(C)c1ccc2nc3ccc(=[N+](C)C)cc-3sc2c1` [MB, methylene blue, reference compound] came in with a half-maximal inhibitory concentration (IC50) of 1.21 ± 0.09 µM.
